Test results published in US20060079453A1, “Hla binding peptides and their uses” (priority 2002, published 2006).

How the values were obtained:
Assay in all cases: biochemical
Type in all cases: binding
HLA-B*1801 = HLA-B*1801 (Homo sapiens, UniProt P01889, A329T/A93T/A95T/C349S/D201E/D54G/D98Y/E176V/E187T/E204Q/E69T/K202T/Q94N/R155S/R180L/S121R/V306I/Y140S/Y195H/Y33H/Y91S)
HLA-B*4002 = HLA-B*4002 (Homo sapiens, UniProt P01889, A65T/A93T/A95T/D138N/D201E/D98Y/E176V/E204Q/E69K/K202T/N87E/Q56L/Q94N/R180L/S48T/Y33H/Y91S)
HLA-B*4402 = HLA-B*4402 (Homo sapiens, UniProt P01889, A223V/A65T/A93T/A95T/D201E/D98Y/E176V/E187L/E204Q/E69K/G107R/H137Y/K202T/L105A/L119I/N104T/N87E/Q56L/Q94N/R106L/R155S/R180D/S101N/S121R/S35A/S48T/T118I/V36M/W191S/Y140D/Y91S)
HLA-B*4403 = HLA-B*4403 (Homo sapiens, UniProt P01889, A223V/A65T/A93T/A95T/D201E/D98Y/E176V/E187L/E204Q/E69K/G107R/H137Y/K202T/L105A/L119I/N104T/N87E/Q56L/Q94N/R106L/R155S/R180L/S101N/S121R/S35A/S48T/T118I/V36M/W191S/Y140D/Y91S)
HLA-B*4001 = HLA-B*4001 (Homo sapiens, UniProt P01889, A65T/A93T/A95T/D138N/D98Y/E176V/E69K/N87E/Q56L/Q94N/R180L/S121R/S35A/S48T/T167S/V36M/W171L/Y33H/Y91S)
HLA-B*4501 = HLA-B*4501 (Homo sapiens, UniProt P01889, A329T/A65T/A93T/A95T/C349S/D138N/D201E/D98Y/E176V/E187L/E204Q/E69K/H137Y/K202T/L119W/N87E/Q56L/Q94N/R155S/R180D/S121R/S35A/S48T/V127L/V306I/V36M/W191S/Y140L/Y33H/Y91S)

Row | SMILES | IC50 (HLA-B*1801) | IC50 (HLA-B*4002) | IC50 (HLA-B*4402) | IC50 (HLA-B*4403) | IC50 (HLA-B*4001) | IC50 (HLA-B*4501)
1 | CC(C)C[C@H](NC(=O)[C@@H]1CCCN1C(=O)[C@H](CO)NC(=O)[C@H](CCCNC(=N)N)NC(=O)[C@@H]1CCCN1C(=O)[C@H](C)NC(=O)[C@H](CCC(=O)O)NC(=O)[C@H](CCC(=O)O)NC(=O)[C@H](CCC(=O)O)NC(=O)[C@@H](N)CO)C(=O)N[C@@H](C)C(=O)O | 1320 nM | 5110 nM | 8550 nM | 158 nM |  | 
2 | CC(C)C[C@H](NC(=O)[C@H](CCC(N)=O)NC(=O)[C@H](CC(C)C)NC(=O)[C@H](CCC(=O)O)NC(=O)[C@@H](N)CCCNC(=N)N)C(=O)N[C@@H](CCCNC(=N)N)C(=O)N[C@@H](CO)C(=O)N[C@@H](CC(C)C)C(=O)N[C@H](C(=O)O)[C@@H](C)O | 638 nM | 13 nM | 465 nM | 0.2 nM |  | 
3 | CC(C)C[C@H](NC(=O)[C@H](Cc1ccc(O)cc1)NC(=O)[C@@H](NC(=O)[C@H](C)NC(=O)[C@H](CC(=O)O)NC(=O)[C@H](CCC(N)=O)NC(=O)[C@@H](NC(=O)[C@H](CCC(=O)O)NC(=O)[C@@H]1CCCN1C(=O)[C@H](CCC(=O)O)NC(=O)[C@@H](N)CS)[C@@H](C)O)[C@@H](C)O)C(=O)O | 831 nM | 3390 nM | 398 nM | 807 nM | 311 nM | 
4 | CSCC[C@H](NC(=O)[C@@H](NC(=O)[C@H](Cc1ccc(O)cc1)NC(=O)[C@H](C)NC(=O)[C@H](CCC(=O)O)NC(=O)[C@@H](N)CC(=O)O)C(C)C)C(=O)N[C@@H](C)C(=O)NCC(=O)N[C@H](C(=O)O)C(C)C |  | 1240 nM | 8010 nM | 138 nM |  | 161 nM
5 | CSCC[C@H](NC(=O)[C@H](CC(C)C)NC(=O)[C@H](CCC(=O)O)NC(=O)[C@@H](N)Cc1c[nH]c2ccccc12)C(=O)N[C@H](C(=O)N[C@@H](Cc1ccccc1)C(=O)NCC(=O)N[C@@H](C)C(=O)N[C@@H](CCCCN)C(=O)N1CCC[C@H]1C(=O)N[C@@H](Cc1ccc(O)cc1)C(=O)O)[C@@H](C)O |  | 778 nM | 24 nM | 75 nM | 509 nM | 
6 | CC(C)C[C@H](NC(=O)[C@@H]1CCCN1C(=O)[C@H](CO)NC(=O)[C@H](CCCNC(=N)N)NC(=O)[C@@H]1CCCN1C(=O)[C@H](C)NC(=O)[C@H](CCC(=O)O)NC(=O)[C@H](CCC(=O)O)NC(=O)[C@H](CCC(=O)O)NC(=O)[C@@H](N)CO)C(=O)O | 151 nM |  | 37 nM | 8.4 nM |  | 84 nM
7 | CC(C)C[C@H](NC(=O)[C@@H]1CCCN1C(=O)[C@H](CO)NC(=O)[C@H](C)NC(=O)[C@H](CCCNC(=N)N)NC(=O)[C@H](CCC(N)=O)NC(=O)[C@H](CCC(=O)O)NC(=O)[C@H](C)N)C(=O)O | 16 nM | 13 nM |  | 0.38 nM | 73 nM | 120 nM
8 | CC(C)C[C@H](NC(=O)[C@@H]1CCCN1C(=O)[C@H](CCC(=O)O)NC(=O)[C@@H](N)C(C)C)C(=O)N[C@H](C(=O)N1CCC[C@H]1C(=O)N[C@@H](CO)C(=O)NCC(=O)N[C@@H](C)C(=O)O)[C@@H](C)O | 7320 nM |  | 8520 nM | 191 nM |  | 
9 | CSCC[C@H](NC(=O)[C@H](CCCNC(=N)N)NC(=O)[C@@H]1CCCN1C(=O)CNC(=O)[C@H](CCC(=O)O)NC(=O)[C@H](CCC(=O)O)NC(=O)[C@H](CCC(=O)O)NC(=O)[C@@H](N)CCC(N)=O)C(=O)N[C@@H](Cc1ccccc1)C(=O)O |  | 7750 nM | 237 nM | 409 nM |  | 2170 nM
10 | CC[C@H](C)[C@H](NC(=O)[C@H](CCCCN)NC(=O)[C@H](CCCCN)NC(=O)[C@H](CS)NC(=O)CNC(=O)[C@H](C)NC(=O)[C@H](Cc1ccccc1)NC(=O)[C@H](CCC(=O)O)NC(=O)[C@@H](N)CCC(N)=O)C(=O)N[C@@H](Cc1ccccc1)C(=O)NCC(=O)O |  | 477 nM | 37 nM | 2.1 nM |  | 138 nM
11 | CC[C@H](C)[C@H](NC(=O)[C@H](CCCCN)NC(=O)[C@H](CCCCN)NC(=O)[C@H](CS)NC(=O)CNC(=O)[C@H](C)NC(=O)[C@H](Cc1ccccc1)NC(=O)[C@H](CCC(=O)O)NC(=O)[C@@H](N)CCC(N)=O)C(=O)N[C@@H](Cc1ccccc1)C(=O)O | 53 nM | 12 nM | 4 nM | 3.6 nM | 3690 nM | 
12 | CC[C@H](C)[C@H](NC(=O)[C@H](CCC(=O)O)NC(=O)[C@@H](NC(=O)[C@H](CC(C)C)NC(=O)[C@H](CO)NC(=O)[C@H](CCCNC(=N)N)NC(=O)[C@H](CC(C)C)NC(=O)[C@H](CCC(N)=O)NC(=O)[C@H](CC(C)C)NC(=O)[C@H](CCC(=O)O)NC(=O)[C@@H](N)CCCNC(=N)N)[C@@H](C)O)C(=O)O |  | 3.7 nM |  | 0.99 nM | 2.8 nM | 269 nM
13 | CC(C)C[C@H](NC(=O)[C@@H]1CCCN1C(=O)[C@@H]1CCCN1C(=O)[C@H](CCC(=O)O)NC(=O)[C@@H](N)C(C)C)C(=O)N[C@@H](CO)C(=O)N[C@@H](CCC(N)=O)C(=O)N[C@@H](CCC(=O)O)C(=O)N[C@H](C(=O)O)[C@@H](C)O |  |  | 3190 nM | 236 nM | 17100 nM | 
14 | CC(C)C[C@H](NC(=O)[C@H](CC(C)C)NC(=O)[C@H](CC(C)C)NC(=O)[C@H](Cc1ccccc1)NC(=O)[C@H](Cc1c[nH]cn1)NC(=O)[C@@H](NC(=O)[C@H](CC(C)C)NC(=O)[C@H](CCC(=O)O)NC(=O)[C@H](C)N)C(C)C)C(=O)O | 160 nM | 3.1 nM |  | 0.94 nM | 25 nM | 141 nM
15 | CC[C@H](C)[C@H](NC(=O)[C@H](CC(N)=O)NC(=O)[C@@H]1CCCN1C(=O)[C@@H](NC(=O)[C@H](Cc1ccccc1)NC(=O)[C@H](CC(C)C)NC(=O)[C@H](CCC(=O)O)NC(=O)[C@@H](N)CCC(N)=O)[C@@H](C)CC)C(=O)N[C@H](C(=O)N[C@H](C(=O)O)C(C)C)[C@@H](C)O | 81 nM | 27 nM |  | 2.6 nM | 121 nM | 14 nM
16 | C[C@H](NC(=O)[C@H](Cc1c[nH]cn1)NC(=O)[C@H](Cc1ccc(O)cc1)NC(=O)[C@H](CCC(=O)O)NC(=O)[C@@H](NC(=O)[C@H](CCC(=O)O)NC(=O)[C@@H](N)CC(=O)O)[C@@H](C)O)C(=O)N[C@@H](CC(=O)O)C(=O)NCC(=O)NCC(=O)O | 613 nM | 16800 nM | 3890 nM | 269 nM |  | 
17 | CC(C)C[C@H](NC(=O)[C@H](C)NC(=O)[C@H](CCC(=O)O)NC(=O)[C@@H](N)CC(N)=O)C(=O)N[C@@H](CCC(=O)O)C(=O)N[C@@H](CC(C)C)C(=O)N[C@@H](CCCCN)C(=O)N[C@@H](CC(=O)O)C(=O)N[C@@H](C)C(=O)O |  |  | 4270 nM | 1580 nM | 3890 nM | 
18 | CC[C@H](C)[C@H](NC(=O)[C@H](C)NC(=O)[C@H](C)NC(=O)[C@H](CCC(N)=O)NC(=O)[C@H](Cc1ccccc1)NC(=O)[C@H](CCC(=O)O)NC(=O)[C@@H](N)CO)C(=O)N[C@@H](CO)C(=O)N[C@@H](CCCNC(=N)N)C(=O)N[C@@H](CCCCN)C(=O)N[C@@H](CCSC)C(=O)O | 7 nM | 107 nM | 88 nM | 1.2 nM |  | 161 nM
19 | CSCC[C@H](N)C(=O)N[C@@H](CCC(=O)O)C(=O)N[C@@H](CC(C)C)C(=O)N[C@@H](C)C(=O)N[C@@H](C)C(=O)N[C@@H](CC(C)C)C(=O)N[C@@H](CS)C(=O)N[C@@H](CCCNC(=N)N)C(=O)N[C@@H](Cc1c[nH]c2ccccc12)C(=O)NCC(=O)N[C@@H](CC(C)C)C(=O)O | 6.4 nM | 30 nM | 17 nM | 0.92 nM | 24 nM | 
20 | CC[C@H](C)[C@H](N)C(=O)N[C@@H](CCC(=O)O)C(=O)NCC(=O)N[C@@H](CC(=O)O)C(=O)N[C@@H](CS)C(=O)N[C@@H](C)C(=O)N1CCC[C@H]1C(=O)N[C@@H](CCC(=O)O)C(=O)N[C@@H](CCC(=O)O)C(=O)N[C@@H](CCCCN)C(=O)N[C@H](C(=O)O)[C@@H](C)CC | 844 nM |  | 2630 nM | 486 nM |  | 183 nM
21 | CC[C@H](C)[C@H](NC(=O)[C@H](CCC(N)=O)NC(=O)[C@H](CC(C)C)NC(=O)[C@@H](NC(=O)[C@H](Cc1ccccc1)NC(=O)[C@H](Cc1ccc(O)cc1)NC(=O)[C@H](CCC(=O)O)NC(=O)CN)[C@@H](C)O)C(=O)O | 7770 nM | 60 nM | 3510 nM | 1 nM |  | 
22 | CC(C)C[C@H](NC(=O)[C@H](Cc1ccc(O)cc1)NC(=O)[C@H](CCC(=O)O)NC(=O)[C@@H]1CCCN1)C(=O)N[C@H](C(=O)N1CCC[C@H]1C(=O)N[C@@H](CCC(N)=O)C(=O)NCC(=O)NCC(=O)O)[C@@H](C)O | 1460 nM | 13900 nM | 6530 nM | 284 nM |  | 
